Data published in US8551978B2 (Theravance, Inc., priority 2009, dated 2013).
pEC50, pKi: −log10 of the molar value. Read-outs that look alike come from different tables or passages of the source.

Amino acid sequences for entries named in this document (tags omitted).
UniProt P20309, whole entry: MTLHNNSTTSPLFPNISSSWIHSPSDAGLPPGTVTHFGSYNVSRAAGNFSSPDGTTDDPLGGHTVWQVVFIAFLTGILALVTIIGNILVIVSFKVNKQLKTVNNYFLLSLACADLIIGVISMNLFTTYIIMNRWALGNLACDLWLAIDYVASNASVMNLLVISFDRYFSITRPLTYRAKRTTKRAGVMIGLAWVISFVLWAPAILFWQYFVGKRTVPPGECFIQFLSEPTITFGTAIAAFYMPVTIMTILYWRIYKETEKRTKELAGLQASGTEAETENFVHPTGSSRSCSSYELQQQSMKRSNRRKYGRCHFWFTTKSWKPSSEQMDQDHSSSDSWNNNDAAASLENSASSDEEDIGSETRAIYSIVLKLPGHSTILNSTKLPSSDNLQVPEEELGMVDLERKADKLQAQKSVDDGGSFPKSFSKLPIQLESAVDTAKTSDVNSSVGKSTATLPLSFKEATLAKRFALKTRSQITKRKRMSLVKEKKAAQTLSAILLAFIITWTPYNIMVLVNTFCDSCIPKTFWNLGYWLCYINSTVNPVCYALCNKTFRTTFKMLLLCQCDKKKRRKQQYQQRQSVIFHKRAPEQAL
UniProt P07550, whole entry: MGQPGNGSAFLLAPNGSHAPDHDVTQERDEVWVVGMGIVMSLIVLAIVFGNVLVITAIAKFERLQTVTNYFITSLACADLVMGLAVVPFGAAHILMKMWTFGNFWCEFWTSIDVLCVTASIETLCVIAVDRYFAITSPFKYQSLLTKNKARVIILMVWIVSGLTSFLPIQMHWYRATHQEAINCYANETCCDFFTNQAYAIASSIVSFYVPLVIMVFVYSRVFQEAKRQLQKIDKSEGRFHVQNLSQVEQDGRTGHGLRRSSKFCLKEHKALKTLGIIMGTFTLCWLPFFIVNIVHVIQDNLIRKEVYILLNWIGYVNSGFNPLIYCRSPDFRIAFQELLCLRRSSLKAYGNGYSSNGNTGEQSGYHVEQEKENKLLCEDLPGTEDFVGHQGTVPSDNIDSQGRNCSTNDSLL

Experiments:
hM3 muscarinic receptor = hM3 muscarinic receptor (Homo sapiens (Human), UniProt P20309); assay: Radioligand binding assay for muscarinic receptors ([3H]-NMS displacement, CHO cell membranes)
Procedure: The cells were grown in a 5% CO2, 37° C. incubator and lifted with 2 mM EDTA in dPBS. Cells were collected by 5 minute centrifugation at 650×g, and cell pellets were either stored frozen at −80° C. or membranes were prepared immediately for use. For membrane preparation, cell pellets were resuspended in lysis buffer and homogenized with a Polytron PT-2100 tissue disrupter (Kinematica AG; 20 seconds×2 bursts). Crude membranes were centrifuged at 40,000×g for 15 minutes at 4° C. The membrane pellet was then resuspended with re-suspension buffer and homogenized again with the Polytron tissue disrupter. The protein concentration of the membrane suspension was determined by the method described in Lowry et al., 1951, […], 193, 265. All membranes were stored frozen in aliquots at −80° C. or used immediately. […] The membranes were briefly homogenized using a Polytron tissue disruptor (10 seconds) prior to assay plate addition. […] The test compounds were initially dissolved to a concentration of 400 μM in dilution buffer and then serially diluted 5× with dilution buffer to final concentrations ranging from 10 μM to […]. The order of addition and volumes added to the assay plates were as follows: 25 μL radioligand, 25 μL diluted test compound, and 50 μL membranes. Assay plates were incubated for 6 hours at 37° C. […] Filter plates were rinsed three times with wash buffer (10 mM HEPES) to remove unbound radioactivity. The plates were then air-dried and 50 μL Microscint-20 liquid scintillation fluid (PerkinElmer, Inc.) were added to each well. The plates were then counted in a PerkinElmer Topcount liquid scintillation counter (PerkinElmer, Inc.). Binding data were analyzed by nonlinear regression analysis with the GraphPad Prism Software package (GraphPad Software, Inc., San Diego, Calif.) using the one-site competition model. […] These summary statistics were then converted back to K; values for data reporting.

hβ2 adrenergic receptor = hβ2 adrenergic receptor (Homo sapiens (Human), UniProt P07550); assay: Assay for determining adrenergic receptor agonist potency (cAMP Flashplate, HEK-293 cells); type: cell-based
Procedure: The cell monolayer was lifted with 2 mM EDTA in PBS. Cells were pelleted by centrifugation at 1,000 rpm, and cell pellets were either stored frozen at −80° C. or membranes were prepared immediately for use. cAMP assays were performed in a radioimmunoassay format using the Flashplate Adenylyl Cyclase Activation Assay System with [^125I]-cAMP (NEN SMP004, PerkinElmer Life Sciences Inc., Boston, Mass.), according to the manufacturers instructions. […] Cells were rinsed with PBS and detached in dPBS (Dulbecco's Phosphate Buffered Saline, without CaCl2 and MgCl2) containing 2 mM EDTA or Trypsin-EDTA solution (0.05% trypsin/0.53 mM EDTA). After counting cells in Coulter cell counter, cells were pelleted by centrifugation at 1,000 rpm and re-suspended in stimulation buffer containing TBMX (PerkinElmer Kit) pre-warmed to room temperature to a concentration of 1.6×10^6 to 2.8×10^6 cells/mL. About 40,000 to 80,000 cells per well were used in this assay. […] Reactions were incubated for 10 min at 37° C. and stopped by adding 100 μL of cold detection buffer containing [^125I]-cAMP (NEN SMP004, PerkinElmer Life Sciences, Boston, Mass.). […] Data were analyzed by nonlinear regression analysis with the GraphPad Prism Software package (GraphPad Software, Inc., San Diego, Calif.) with the sigmoidal equation. […]

CC(Cc1ccc(NC(=O)c2cccc(N(C)C(=O)CCN3CCC(OC(=O)Nc4ccccc4-c4ccccc4)CC3)c2)cc1)NC[C@H](O)c1ccc(O)c2[nH]c(=O)ccc12 (stereo partly shown) [Compound I-40]
pKi (hM3 muscarinic receptor): 10.00

C[C@@H](Cc1ccc(NC(=O)c2cccc(N(C)C(=O)CCN3CCC(OC(=O)Nc4ccccc4-c4ccccc4)CC3)c2)cc1)NC[C@H](O)c1ccc(O)c2[nH]c(=O)ccc12 [Compound I-43]
pKi (hM3 muscarinic receptor): 10.00

C[C@H](Cc1cccc(CNC(=O)c2ccc(N(C)C(=O)CCN3CCC(OC(=O)Nc4ccccc4-c4ccccc4)CC3)cc2)c1)NC[C@H](O)c1ccc(O)c2[nH]c(=O)ccc12 [Compound I-50]
pKi (hM3 muscarinic receptor; hM3 Muscarinic Receptor Binding, data rounded to nearest 0.1 nM): 9.40

CC(Cc1cc(CNC(=O)Cc2ccc(N(C)C(=O)CCN3CCC(OC(=O)Nc4ccccc4-c4ccccc4)CC3)cc2)ccc1F)NC[C@H](O)c1ccc(O)c2[nH]c(=O)ccc12 (stereo partly shown) [Compound I-73]
pEC50 (hβ2 adrenergic receptor): 9.00
